The assay deals with D(2) dopamine receptor (Rattus norvegicus, UniProt P61169). The experiment in a line: In vitro binding affinity towards rat Dopamine receptor D2 by [3H]spiperone displacement.

By UniProt entry, the sequences of proteins in these tests, tags left out.
UniProt P61169, whole entry: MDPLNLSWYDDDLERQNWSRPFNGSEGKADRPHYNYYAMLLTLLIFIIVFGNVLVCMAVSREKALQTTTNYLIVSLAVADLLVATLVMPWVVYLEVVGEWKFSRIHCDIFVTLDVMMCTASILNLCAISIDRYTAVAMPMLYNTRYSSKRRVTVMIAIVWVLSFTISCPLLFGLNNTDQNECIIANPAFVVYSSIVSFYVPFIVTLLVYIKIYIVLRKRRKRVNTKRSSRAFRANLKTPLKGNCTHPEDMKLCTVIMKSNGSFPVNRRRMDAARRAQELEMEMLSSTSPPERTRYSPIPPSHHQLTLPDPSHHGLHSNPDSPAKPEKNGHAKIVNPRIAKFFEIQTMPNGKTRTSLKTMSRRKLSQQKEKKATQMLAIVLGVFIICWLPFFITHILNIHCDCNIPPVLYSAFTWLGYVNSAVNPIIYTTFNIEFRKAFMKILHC

The structures appear in SMILES notation.

In the case of `CN1CCc2cccc3c2[C@@H]1Cc1ccc(O)c(O)c1-3` [(S)APOMORPHINE], the concentration for half-maximal inhibition (IC50) worked out at 680 nM.

`CN1CCc2cccc3c2[C@H]1Cc1ccc(O)c(O)c1-3` [APOMORPHINE]: the 50% inhibitory concentration (IC50) came out at 21 nM.

The record behind these values is ChEMBL document CHEMBL1125049, “Aporphines as antagonists of dopamine D-1 receptors” (J Med Chem, 1990).
